From ChEMBL document CHEMBL4706608, “Design and synthesis of 3-(4-pyridyl)-5-(4-sulfamido-phenyl)-1,2,4-oxadiazole derivatives as novel GSK-3β inhibitors and evaluation of their potential as multifunctional anti-Alzheimer agents” (Eur J Med Chem, 2021)

Assay: Efflux ratio of apparent permeability across basolateral to apical membrane to apical to basolateral membrane in MDCK2-MDR1 measured upto 120 mins
Assay type: ADME, tissue-based, Canis lupus familiaris
Settings: dog, mdck-ii, 2 h

CN1C(=O)CN=C(c2ccccc2)c2cc(Cl)ccc21 [DIAZEPAM]
Ratio: 0.89
